Laboratory results published in PubChem BioAssay AID651718 (The Scripps Research Institute Molecular Screening Center, 2012).
The list shows a part of the results, in another mix than the full data. The source made the active and inactive calls. Rule as the data show it: active = inhibition above about 4.5%; inactive = the rest.

system: Methionine sulfoxide reductase A (Bos taurus); experiment: bovine MsrA enzyme inhibitors, primary screen, biochemical, absorbance, HTS (AID 651718); conditions: purified bovine MsrA, absorbance read-out; at 15.5 µM; hits give high values;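 also: 0% = vehicle wells with enzyme and 100% = reference inhibitor wells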

Row | Compound | inhibition
1 | O=C(NCC1(N2CCCCC2)CCCCC1)c1ccc(OC(F)F)cc1 | inactive: 0.45%
2 | COc1ccc(C(c2nnnn2C2CCCC2)N2CCC(n3c(=O)[nH]c4ccccc43)CC2)cc1 (configuration not stated) | inactive: -0.49%
3 | Cc1ccc(C(=O)NCC2(N(C)C)CCCCC2)o1 | inactive: -1.33%
4 | CCCOc1ccc(C(=O)NCC2(N(C)C)CCCCC2)cc1OC | inactive: -0.97%
5 | CN1CCC(Nc2cccc(F)c2)CC1 | inactive: -1.2%
6 | O=C(NCC1(N2CCCCC2)CCCCC1)c1cncc(Br)c1 | inactive: -1.18%
7 | COc1cc(OC)c(C(=O)NCC2(N(C)C)CCCCC2)cc1OC | inactive: 0.79%
8 | O=C(NCC1(N2CCOCC2)CCCCC1)c1cc(F)c(F)cc1Cl | inactive: 0.85%
9 | CCC(c1nnnn1C(C)(C)C)N1CCC(n2c(=O)[nH]c3ccccc32)CC1 (configuration not stated) | inactive: -0.1%
10 | CCCCn1nnnc1C(c1ccnc2ccccc12)N1CCC(n2c(=O)[nH]c3ccccc32)CC1 (configuration not stated) | inactive: -0.19%
11 | CC(C)c1ccc(NC2CCN(C(=O)OC(C)(C)C)CC2)cc1 | inactive: -1.05%
12 | COc1ccc(CN(CCCl)CCCl)cc1Cl | inactive: 1.21%
13 | CN(C)c1cccc(C(=O)NCC2(N3CCCCC3)CCCCC2)c1 | inactive: -0.79%
14 | O=C(NCC1(N2CCCCC2)CCCCC1)c1ccc(Cl)s1 | inactive: 0.72%
15 | N#CC1(Nc2ccccc2)CCN(Cc2ccccc2)CC1 | inactive: -1.81%
16 | O=c1[nH]c2ccccc2n1C1CCN(C(c2cc3ccccc3o2)c2nnnn2C2CCCCC2)CC1 (configuration not stated) | inactive: 1.46%
17 | O=C(OC1CN2CCC1CC2)C1c2ccccc2Oc2ccccc21 (configuration not stated) | inactive: 0.1%
18 | COc1ccc(Cl)cc1C(=O)NCC1(N2CCOCC2)CCCCC1 | inactive: -0.98%
19 | CCOC(=O)N1CCC(Nc2ccc(OC)cc2)CC1 | inactive: 0%
20 | CCCCn1nnnc1C(c1ccc(OC)cc1)N1CCC(n2c(=O)[nH]c3ccccc32)CC1 (configuration not stated) | inactive: 0.81%
21 | O=C(NCC1(N2CCCCC2)CCCCC1)c1ccc(Cl)nc1 | inactive: -0.33%
22 | O=c1[nH]c2ccccc2n1C1CCN(C(c2ccccc2OC(F)(F)F)c2nnnn2C2CCCCC2)CC1 (configuration not stated) | inactive: 0.09%
23 | Cc1cc(C)cc(N(C(=O)c2ccccc2)C2CCN(C(=O)OC(C)(C)C)CC2)c1 | inactive: -0.59%
24 | O=C(NCC1(N2CCOCC2)CCCCC1)c1cc2ccccc2o1 | inactive: 0.25%

Row | Compound | inhibition
25 | CSc1ccccc1C(=O)NCC1(N2CCCCC2)CCCCC1 | inactive: -0.89%
26 | Cc1cccc(NC2(C#N)CCN(Cc3ccccc3)CC2)c1 | inactive: 0.69%
27 | COc1ccc(C(=O)NCC2(N3CCCCC3)CCCCC2)cc1 | inactive: 0.73%
28 | COc1ccc(C(=O)NCC2(N3CCCCC3)CCCCC2)c(OC)c1OC | inactive: 1.77%
29 | CC(C)(C)OC(=O)N1CCC(N(C(=O)c2ccccc2)c2ccc(F)cc2)CC1 | inactive: -0.79%
30 | CCC(c1nnnn1C1CCCC1)N1CCC(n2c(=O)[nH]c3ccccc32)CC1 (configuration not stated) | inactive: 0.57%
31 | O=C(NCC1(N2CCCCC2)CCCCC1)c1ccc(=O)[nH]c1 | inactive: 0.35%
32 | CCCCn1nnnc1C(CC)N1CCC(n2c(=O)[nH]c3ccccc32)CC1 (configuration not stated) | inactive: 0.99%
33 | O=C(NCC1(N2CCCCC2)CCCCC1)c1cccs1 | inactive: -0.88%
34 | CCCCn1nnnc1C(c1cccs1)N1CCC(n2c(=O)[nH]c3ccccc32)CC1 (configuration not stated) | inactive: -0.48%
35 | CCOC(=O)N1CCC(Nc2cccc(C)c2)CC1 | inactive: 0.05%
36 | COc1cc(C(=O)NCC2(N(C)C)CCCCC2)ccc1OC(F)F | inactive: 0.75%
37 | O=c1[nH]c2ccccc2n1C1CCN(C(c2cccc3ccccc23)c2nnnn2C2CCCC2)CC1 (configuration not stated) | inactive: -0.37%
38 | O=c1[nH]c2ccccc2n1C1CCN(C(c2ccccc2)c2nnnn2C2CCCCC2)CC1 (configuration not stated) | inactive: 0.33%
39 | CCCCOc1ccc(C(=O)NCC2(N3CCOCC3)CCCCC2)cc1 | inactive: 0.34%
40 | CCCCn1nnnc1C(c1cc2ccccc2o1)N1CCC(n2c(=O)[nH]c3ccccc32)CC1 (configuration not stated) | inactive: -2.09%
41 | O=P1(N(CCCl)CCCl)SCCCS1 | inactive: -0.76%
42 | O=C(NCC1(N2CCCCC2)CCCCC1)c1ccc(F)cc1 | inactive: -0.2%
43 | CCOC(=O)N1CCC(Nc2ccc(F)cc2)CC1 | inactive: 1.93%
44 | COc1ccc(NC2CCN(CCc3ccccc3)CC2)c(OC)c1 | inactive: -0.94%
45 | CC(C)(C)n1nnnc1C(c1ccccc1)N1CCC(n2c(=O)[nH]c3ccccc32)CC1 (configuration not stated) | inactive: -0.29%
46 | O=C1CCN(Cc2ccccc2)CC1 | inactive: -0.09%
47 | CCOc1ccc(C)cc1CN(CCCl)CCCl | inactive: 0.18%
